# AlphaSeq binding of Ab-14 light chain variants to a spike HR2 peptide

Values reported by Engelhart et al. 2022, doi:10.1038/s41597-022-01779-4 (FLAb copy).

The target is the same throughout: PDVDLGDISGINAS, from the HR2 region of SARS-CoV-2 spike.

The variants keep the heavy chain, the linker and the frameworks of Ab-14 (scFv order VH, a (GGGGS)3 linker, VL).
VH: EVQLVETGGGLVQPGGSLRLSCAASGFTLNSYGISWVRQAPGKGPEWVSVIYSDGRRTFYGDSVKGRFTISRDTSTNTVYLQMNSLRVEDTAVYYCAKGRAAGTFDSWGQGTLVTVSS
VL: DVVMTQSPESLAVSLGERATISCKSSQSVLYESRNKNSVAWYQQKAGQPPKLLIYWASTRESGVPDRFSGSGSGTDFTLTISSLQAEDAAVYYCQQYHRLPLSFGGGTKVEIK

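The starting antibody came from a phage panning campaign against this peptide. Variants in AAYL50 differ from the parent at up to three CDR positions; double and triple changes were sampled at random. The assay is AlphaSeq: two haploid yeast populations carry antibody and antigen on their surface. Pairs that bind mate more often; barcode pairs of the diploids are counted by sequencing. Scores were corrected for input abundance and mapped to Kd with protein pairs of known affinity run in the same pool. Mating was done three times.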

Variants are written as CDR1, CDR2 and CDR3 of the light chain (limits as in the source). Parent: KSSQSVLYESRNKNSVA, WASTRES, QQYHRLPLS. Scale: log10 of Kd in nM, estimated from mating counts; low values are strong binders. A pair that was not seen in that replicate is written "n.d."; this usually means weak binding, but a binder can also be missed. In this assay the parent's reference entry averaged 0.65; its copy inside this library read 1.68.

CDR-L1 | CDR-L2 | CDR-L3 | log10 Kd (nM) by replicate | empty controls
NSSQSVHYESRNKRSVA | WASTRES | QQYHRLPLS | 1.58 / 1.60 / 1.88 | 4/9 (3.99)
HSSQSVLYESRNKNSVA | WAGTRES | QQYHRLPLS | 4.38 / 4.25 / n.d. | 5/9 (4.67)
KSSQSVLYESRNKNFVA | WASWVES | QQYHRLPLS | n.d. / n.d. / n.d. | 2/9 (3.96)
LSSQSVLYASRNKNSVS | WASTRES | QQYHRLPLS | n.d. / n.d. / n.d. | 1/9 (4.08)
KSSQRVLYEWKNKNSVA | WASTRES | QQYHRLPLS | n.d. / 2.64 / n.d. | 0/9
KSSQSVLTESTNKNSVA | WASTNES | QQYHRLPLS | 3.66 / n.d. / n.d. | 4/9 (4.31)
KSSQSVVYESRNKNSVA | QASTRES | QQYHRLPLS | 0.24 / 0.49 / 0.35 | 2/9 (4.58)
KSSQSVLYEFRNKNSVA | WASTRES | QQHHRLPLS | n.d. / n.d. / n.d. | 1/9 (4.20)
KSSQSVLYESRNTNLVA | WASTRES | QQYHRLPLS | 3.71 / 3.86 / 6.44 | 2/9 (3.71)
ESSQSVLYESRNKNSDR | WASTRES | QQYHRLPLS | n.d. / n.d. / n.d. | 2/9 (4.09)
KSSQSALYESRNKNSVA | WASTRES | QQYQRNPLS | 0.19 / 0.63 / 0.37 | 0/9
KSSQSVLYTSRNKNSVA | WASTFES | QVYHRLPLS | n.d. / 3.28 / n.d. | 4/9 (4.17)
KSSQSVLYESRNKNSCQ | WASTRES | QQYHRLHLS | n.d. / n.d. / n.d. | 2/9 (4.39)
KSSQSVLYDSRNKNSVA | HASTREE | QQYHRLPLS | -0.66 / -0.22 / -0.33 | 0/9
KSSQSVLYESRNKGSVA | WASMRES | QQYHRLQLS | 1.60 / 1.72 / 1.69 | 0/9
KSSQSVRYISRNKNQVA | WASTRES | QQYHRLPLS | n.d. / 4.23 / n.d. | 1/9 (3.22)
KSSQSVLYESSNKNSVA | RAETRES | QQYHRLPLS | 2.48 / 2.30 / 2.58 | 4/9 (4.63)
KSSQSVLYESRRHNSVA | WASTREE | QQYHRLPLS | 0.74 / 0.79 / 1.02 | 1/9 (3.14)
KSSQLVLYESRNKNSVA | WASTRES | QQYHRKPLS | n.d. / n.d. / n.d. | 0/9
KFSQSVLYESRNKNSSA | WASTRES | QQDHRLPLS | n.d. / n.d. / n.d. | 0/9
KSSQSVLYESRNKNSVA | WTSTRES | QQYHSLPCS | 4.13 / n.d. / n.d. | 1/9 (3.24)
KSSQAVLYESRNKNSFA | WASTRES | QQYPRLPLS | n.d. / n.d. / 6.03 | 2/9 (4.12)
KSSQSVQYESRNKNSVA | WASTRES | QHYHRWPLS | n.d. / n.d. / n.d. | 0/9
ASSQSVLYESRNKDSTA | WASTRES | QQYHRLPLS | n.d. / n.d. / n.d. | 6/9 (4.74)
KSSQSVLLHSRNKNSVA | WASTRES | QQYHRKPLS | n.d. / n.d. / 3.94 | 3/9 (4.08)
KSSQSVLYESRNANSMY | WASTRES | QQYHRLPLS | n.d. / n.d. / n.d. | 0/9
KSSQSVLYESRNKNSVA | WASTKES | QQYHRYPLS | 1.11 / 1.37 / 1.42 | 0/9
KSSQSVLYESRRKNSVA | WASTRES | QQYMALPLS | 2.27 / 2.13 / 2.25 | 4/9 (4.86)
YSSQSVLYESRNKNSVA | WASTHES | QQYCRLPLS | 3.49 / 3.27 / 3.39 | 5/9 (4.69)
KSLQSVLYESRNKNSVA | WCSTRGS | QQYHRLPLS | n.d. / 3.58 / n.d. | 1/9 (4.24)
KSSQSVLIESKNKNSVC | WASTRES | QQYHRLPLS | 4.49 / 2.54 / 2.84 | 3/9 (4.53)
KSSISVLYECRNKNSVA | WASTRES | QQYHRLDLS | n.d. / 2.91 / n.d. | 0/9
KSSMSVLYESRNKNSVA | WARTRWS | QQYHRLPLS | 2.47 / 2.43 / 1.98 | 0/9
KSSQSVLYESRNKNSVA | LASTRES | QPYHRLPLS | n.d. / n.d. / n.d. | 0/9
KSSQSVLCESINKNSVA | KASTRES | QQYHRLPLS | 0.70 / 0.59 / 1.01 | 1/9 (3.27)
KSMQSVLYESRNKNSVA | WASTRES | QQYLRLYLS | n.d. / n.d. / n.d. | 1/9 (2.20)

The first 3 entries again:

CDR-L1 | CDR-L2 | CDR-L3 | log10 Kd (nM) by replicate | empty controls
NSSQSVHYESRNKRSVA | WASTRES | QQYHRLPLS | 1.58 / 1.60 / 1.88 | 4/9 (3.99)
HSSQSVLYESRNKNSVA | WAGTRES | QQYHRLPLS | 4.38 / 4.25 / n.d. | 5/9 (4.67)
KSSQSVLYESRNKNFVA | WASWVES | QQYHRLPLS | n.d. / n.d. / n.d. | 2/9 (3.96)

As a blank, each scFv also met three strains without target: over library AAYL50, 18% of these pairings were detected, typically at 4.19 and seldom below 2.99. For each scFv, signals with the empty controls are counted beside the result, with their mean in brackets.